Literature values in US20240401031A1, “Platform Using iPSC-Derived Cardiomyocytes Carrying Gene Variants as Models of Cardiac Disease and Drug-Response” (SRI INTERNATIONAL, priority 2021, published 2024).

Conditions: source CredibleMeds

Substance: Ibogaine
- Risk (Torsade de Pointes): (KR)
